Data: patent publication US8551988B2, “Benzimidazole derivatives: preparation and pharmaceutical applications” (Mei Pharma, Inc., priority 2003, dated 2013)

Amino acid sequences for entries named in this document (tags omitted).
UniProt Q13547, whole entry: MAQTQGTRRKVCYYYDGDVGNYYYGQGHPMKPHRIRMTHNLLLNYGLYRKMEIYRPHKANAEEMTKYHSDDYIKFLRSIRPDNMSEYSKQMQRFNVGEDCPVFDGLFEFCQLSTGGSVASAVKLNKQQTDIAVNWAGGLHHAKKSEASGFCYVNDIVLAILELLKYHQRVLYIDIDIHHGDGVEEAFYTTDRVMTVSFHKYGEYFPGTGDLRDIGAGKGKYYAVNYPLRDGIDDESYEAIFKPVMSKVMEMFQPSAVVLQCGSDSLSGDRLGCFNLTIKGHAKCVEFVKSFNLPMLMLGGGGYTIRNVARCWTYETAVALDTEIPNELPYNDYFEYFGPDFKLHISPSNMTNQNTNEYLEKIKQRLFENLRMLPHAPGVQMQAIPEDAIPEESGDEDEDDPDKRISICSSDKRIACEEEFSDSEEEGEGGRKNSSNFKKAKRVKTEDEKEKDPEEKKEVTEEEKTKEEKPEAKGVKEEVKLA

Molecular target: HDAC1 enzyme (recombinant GST-HDAC1) (Homo sapiens (Human), UniProt Q13547)
Assay: In vitro HDAC assay (BIOMOL fluorescent-based HDAC activity assay), HDAC1
Format: biochemical

SMILES: O=C(/C=C/c1ccc2c(c1)ncn2CCCO)NO [Compound 47, N-Hydroxy-3[1-(3-hydroxy-propyl)-1H-benzimidazol-5-yl]-acrylamide]
- IC50: 1090 nM
